We go through one compound from patent US20120094995A1, “2-AZA-BICYCLO[2.2.1]HEPTANE COMPOUNDS AND USES THEREOF” (ASTRAZENECA AB, priority 2009, published 2012).

Amino acid sequences for entries named in this document (tags omitted). Residues count along the entry.
UniProt P48067, 1-652 isoform 3: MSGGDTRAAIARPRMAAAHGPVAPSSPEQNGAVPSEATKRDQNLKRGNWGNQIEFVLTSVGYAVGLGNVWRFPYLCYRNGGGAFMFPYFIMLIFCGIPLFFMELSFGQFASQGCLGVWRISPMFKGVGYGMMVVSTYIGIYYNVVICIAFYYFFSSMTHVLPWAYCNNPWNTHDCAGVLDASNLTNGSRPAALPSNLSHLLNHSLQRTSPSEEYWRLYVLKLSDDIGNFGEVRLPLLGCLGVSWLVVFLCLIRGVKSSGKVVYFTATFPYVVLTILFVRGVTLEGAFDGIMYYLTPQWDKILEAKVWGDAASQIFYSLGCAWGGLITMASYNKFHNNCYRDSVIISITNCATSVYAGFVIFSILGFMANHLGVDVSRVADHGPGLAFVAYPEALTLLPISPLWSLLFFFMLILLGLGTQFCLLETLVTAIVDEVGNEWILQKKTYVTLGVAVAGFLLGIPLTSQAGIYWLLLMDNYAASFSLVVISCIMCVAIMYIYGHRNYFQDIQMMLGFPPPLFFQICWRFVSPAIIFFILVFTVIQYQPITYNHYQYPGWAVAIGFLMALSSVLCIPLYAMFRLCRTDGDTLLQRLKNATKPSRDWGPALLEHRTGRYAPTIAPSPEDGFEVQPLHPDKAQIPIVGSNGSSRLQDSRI

The experiment has as its target human GlyT1b (Homo sapiens, UniProt P48067). The experiment in a line: [3H] Glycine Uptake Assay (SPA) in recombinant hGlyT1b-CHO cells. The format is cell-based. The following applies: Table 2, unit from table title.

In the case of `Cc1cccc(Cl)c1C(=O)NC(c1ccccc1)C12CCC(CC1)N2C` (stereo not shown) [Example 67], the IC50 (as a rule, the point on the concentration scale where inhibition reaches its midpoint) came out at 104 nM.
